As a reminder, the viability is the share of living cells, or the viability signal relative to a control.

Sequences of proteins named here, by UniProt entry; tags and fusion partners are left off.
UniProt P07203, whole entry: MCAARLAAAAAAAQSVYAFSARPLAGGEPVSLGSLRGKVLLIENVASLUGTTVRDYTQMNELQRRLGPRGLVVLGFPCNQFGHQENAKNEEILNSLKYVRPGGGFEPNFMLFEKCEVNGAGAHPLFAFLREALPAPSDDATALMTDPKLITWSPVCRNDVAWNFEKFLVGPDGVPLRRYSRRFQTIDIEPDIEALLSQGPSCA
UniProt P36969, whole entry: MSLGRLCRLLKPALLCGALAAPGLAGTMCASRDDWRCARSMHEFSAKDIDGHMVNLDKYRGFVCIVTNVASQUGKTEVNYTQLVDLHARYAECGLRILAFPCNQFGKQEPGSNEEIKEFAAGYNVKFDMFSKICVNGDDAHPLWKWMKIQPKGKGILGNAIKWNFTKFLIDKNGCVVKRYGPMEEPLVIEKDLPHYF
UniProt Q14994, whole entry: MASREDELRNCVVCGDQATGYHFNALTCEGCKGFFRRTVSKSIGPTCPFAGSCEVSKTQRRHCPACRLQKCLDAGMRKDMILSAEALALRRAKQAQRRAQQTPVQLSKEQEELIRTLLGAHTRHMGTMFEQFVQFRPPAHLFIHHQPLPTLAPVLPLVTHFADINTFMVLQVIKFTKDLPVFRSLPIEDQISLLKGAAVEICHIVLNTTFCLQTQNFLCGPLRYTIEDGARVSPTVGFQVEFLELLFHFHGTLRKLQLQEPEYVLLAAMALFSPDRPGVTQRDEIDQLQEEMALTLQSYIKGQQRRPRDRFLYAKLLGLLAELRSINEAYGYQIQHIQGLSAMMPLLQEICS

Structures are written as SMILES. Only a part is listed here, and it is no random draw. Records with an inconclusive call do not appear. The source made the active and inactive calls. Calls come from the whole dose curve; as a rule, active = well fitted curve in the direction sought with a large enough effect; inconclusive = small, poorly fitted or top-dose-only effect, or another doubt; inactive = no such curve, though single readings can be large; an effect the other way counts as inactive or inconclusive.

Experiment [1] deals with Glutathione peroxidase 1 (Homo sapiens) (UniProt P07203). The experiment can be described thus: Primary qHTS Assay for Inhibitors of Recombinant Selenoprotein Glutathione Peroxidase 1 (GPX1) (AID 1845191). For activity, negative = inhibition: % is set by controls: 0 for no effect and ±100 for the full control effect. Note: nearly all actives have a fitted effect of over 65% in size. The settings on record: recombinant GPX1, GR-coupled NADPH fluorescence, 15 min; activity, negative = inhibition: at 48.8 µM (top of the series) unless noted. A digest of the protocol: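 GR-coupled assay: compounds preincubated 30 min at room temperature with GPX1, then reaction started with CHP; final 10 nM GPX1, 1 mM GSH, 0.5 mM CHP, 0.5 mM NADPH, 100 nM GR, 0.01% BSA, pH 7.5 Tris buffer. NADPH fluorescence (340/450 nm) read at 0 and 15 min.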
A general note: qHTS replaces the single test concentration by a dilution series.

For experiment [2], the target named is Phospholipid hydroperoxide glutathione peroxidase GPX4 (Homo sapiens) (UniProt P36969). The experiment can be described thus: Primary qHTS Assay for Inhibitors of Recombinant Selenoprotein Glutathione Peroxidase 4 (GPX4) (AID 1845192). For activity change, negative = inhibition: % is set by controls: 0 for no effect and ±100 for the full control effect. Note: nearly all actives have a fitted effect of over 65% in size. The settings on record: recombinant GPX4, GR-coupled NADPH fluorescence, 15 min; activity change, negative = inhibition: at 50 µM (top of the series) unless noted. A digest of the protocol: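 GR-coupled assay: recombinant GPX4 preincubated 30 min with compound at room temperature; final 200 nM GPX4, 1 mM GSH, 0.5 mM cumene hydroperoxide, 0.5 mM NADPH, 100 nM GR, 0.01% BSA, pH 7.5 Tris. NADPH fluorescence (340/450 nm) read at 0 and 15 min.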

The target in experiment [3] is Luciferin 4-monooxygenase (Photinus pyralis) (UniProt P08659). The experiment can be described thus: Primary firefly luciferase (FLuc) qHTS assay for identification of artifact compounds. (AID 1845220).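 Note: plate controls were DMSO vehicle for no effect and no enzyme for full effect; nearly all actives have a fitted effect of over 60% in size.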 The conditions noted are these: purified firefly luciferase, luminescence, 5 min; at 54.1 µM (top of the series) unless noted. A digest of the protocol: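 D-luciferin and ATP (10 uM each, final) in Tris acetate buffer pH 7.6 were incubated with compounds for 15 min at room temperature. The reaction was started with 10 nM Photinus pyralis luciferase and luminescence read after 5 min. Percent inhibition was fitted to a 4-parameter Hill equation.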

The nature of experiment [4]: Primary fluorescence-based thiol-reactive (MSTI) qHTS assay for identification of artifact compounds. (AID 1845221).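 Note: thiol-reactive compounds lower the probe fluorescence signal; nearly all actives have a fitted effect of over 65% in size.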 A digest of the protocol: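 First, 4 uM MSTI in 2% DMSO/PBS pH 7.4 was dispensed; next, compounds were added; then plates sat 1 h at room temperature without light. Finally, emission at 598 nm was recorded.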
Experiment [5] has as its system Nanoluciferase (engineered Oplophorus gracilirostris luciferase). The experiment can be described thus: Primary Nanoluciferase (NLuc) qHTS assay for identification of artifact compounds. (AID 1845222).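 Note: 0% = DMSO and -100% = no enzyme.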 The settings on record: NLuc-conditioned medium, Nano-Glo luminescence, 5 min; at 54.1 µM (top of the series). A digest of the protocol:
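Diluted conditioned medium from NLuc-expressing S16 cells treated with compounds for 15 min at room temperature, then Nano-Glo substrate added; luminescence read after 5 min. Percent inhibition versus no-enzyme and DMSO controls fitted to 4-parameter Hill equation.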

A short description of experiment [6]: Primary redox qHTS assay for identification of artifact compounds. (AID 1845223). The conditions noted are these: Amplex Red/HRP redox cycling with DTT, fluorescence; at 53.8 µM (top of the series). A digest of the protocol: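 Amplex Red (25 uM) and HRP (250 mU/mL) in HBSS, with compounds for 15 min, then 250 uM DTT for 30 min, room temperature, dark. Fluorescence 525/598 nm read; normalized to DMSO and 10 uM DA3003; Hill fit.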

The target of experiment [7] is Nuclear receptor subfamily 1 group I member 3 (Homo sapiens) (UniProt Q14994). The experiment can be described thus: Primary qHTS for antagonist of constitutive androstane receptor (CAR) against the NCATS DSHEA and TCM libraries (AID 1794836).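 Note: HepG2 cells stably expressing hCAR with CYP2B6 luciferase reporter stimulated by CITCO.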 The settings on record: CAR reporter cell assay, antagonist mode, luciferase; at 40 µM (top of the series). A digest of the protocol:
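HepG2-CYP2B6-hCAR cells, attached 5 h, given compounds plus CITCO agonist […], incubated 24 h at 37 C. Luciferase luminescence read, multiplexed with CellTiter-Fluor viability (Ex/Em 405/540 nm).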

Experiment [8] in a line: Viability counterscreen for agonist of constitutive androstane receptor (CAR) against the NCATS DSHEA and TCM libraries (AID 1794838). Note: 0% is about no effect. The settings on record: HepG2 cell viability counterscreen, CAR agonist assay, co-treated with 0.75 µM CAR antagonist; at 40 µM (top of the series). A digest of the protocol: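 Viability by CellTiter-Fluor fluorescence, 405/540 nm, after 1 h at 37C. HepG2-CYP2B6-hCAR cells were exposed 24 h to test substances in presence of 0.75 uM PK11195 (final).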

Experiment [9] can be described thus: HepG2 viability counterscreen (readout 2: ATP content) against the NCATS DSHEA and TCM libraries (AID 1794840). Note: 0% is about no effect. The settings on record: ATP content luminescence; at 27.3 µM (top of the series). A digest of the protocol:
(§1)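 1,000 HepG2 cells/well, 4 h attach; compounds ~24 h, 37C/5% CO2. Readout 1: GF-AFC 25 uM final, 30 min, fluorescence 380/510 nm. Readout 2: CellTiter-Glo, 30 min RT, luminescence.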

Experiment [10] in a line: HepG2 viability counterscreen (readout 1: protease activity) against the NCATS DSHEA and TCM libraries (AID 1794841).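 Note: cells exposed to compounds for about 24 h before the protease read; 0% is about no effect.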 The conditions noted are these: qHTS concentration series; at 27.3 µM (top of the series). A digest of the protocol:
as §1

Experiment [11] is described as follows: Quantitative High-Throughput drug screen in 47 multiple myeloma cell lines against the NCATS MIPE library collection: ARP1_JJKsccF8 cell viability assay (AID 1918928; note: nearly all actives have a fitted effect of over 40% in size). The conditions noted are these: ARP1 myeloma cells viability, CellTiter-Glo ATP, 48 h; at 23.2 µM (top of the series). A digest of the protocol: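 Myeloma cells at 500 per well in 1536-well format treated with MIPE 4.0 library by pin transfer for 48 h at 37C, 5% CO2. Viability from ATP luminescence (CellTiter-Glo), normalized to DMSO (100%) and media-only (0%) wells.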
For orientation: ATP-based viability assays read luminescence as a measure of living cells.

The nature of experiment [12]: Quantitative High-Throughput drug screen in 47 multiple myeloma cell lines against the NCATS MIPE library collection: ARD_JJKsccE7 cell viability assay (AID 1918929). The conditions noted are these: ARD myeloma cell line viability, CellTiter-Glo, 48 h; at 23.2 µM (top of the series). A digest of the protocol:
(§2)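 Approved and investigational drugs from MIPE 4.0 were added by pin tool to 500 cells per well. After 48 hours at 37C, ATP-based CellTiter-Glo luminescence indicated remaining viability.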

Experiment [13] in a line: Quantitative High-Throughput drug screen in 47 multiple myeloma cell lines against the NCATS MIPE library collection: JIM3_ECACC cell viability assay (AID 1918963; note: potency is the fitted concentration of half-maximal effect; nearly all actives have a fitted effect of over 35% in size). The settings on record: JIM3 myeloma viability, CellTiter-Glo ATP, 48 h. A digest of the protocol:
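Myeloma cell lines, 500 cells per well, exposed to MIPE 4.0 library compounds for 48 h at 37C, 5% CO2. Viability from ATP by CellTiter-Glo luminescence; normalised to DMSO (100%) and media-only (0%) wells.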

Experiment [14] is described as follows: Quantitative High-Throughput drug screen in 47 multiple myeloma cell lines against the NCATS MIPE library collection: H1112_PLB cell viability assay (AID 1918967; note: nearly all actives have a fitted effect of over 30% in size). The conditions noted are these: H1112 myeloma cells viability, ATP luminescence, 48 h; at 23.2 µM (top of the series). A digest of the protocol:
as §2

Experiment [15] can be described thus: Quantitative High-Throughput drug screen in 47 multiple myeloma cell lines against the NCATS MIPE library collection: Karpas25_ECACC cell viability assay (AID 1918968; note: nearly all actives have a fitted effect of over 35% in size). The settings on record: Karpas25 myeloma viability, CellTiter-Glo ATP, 48 h; at 23.2 µM (top of the series). A digest of the protocol: as §2
The nature of experiment [16]: Quantitative High-Throughput drug screen in 47 multiple myeloma cell lines against the NCATS MIPE library collection: KMS12BM_JCRB cell viability assay (AID 1918971). Note: nearly all actives have a fitted effect of over 35% in size. The settings on record: KMS12BM myeloma viability, CellTiter-Glo ATP, 48 h; at 23.2 µM (top of the series). A digest of the protocol: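 Steps: seed 500 cells per well; pin-transfer MIPE 4.0 library; incubate 48 h at 37C, 5% CO2, humidified; add CellTiter-Glo, 5 min room temperature; read luminescence.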

`CCOP(=O)(CC)Oc1ccc([N+](=O)[O-])cc1` (stereo not given): the outcome in [1] and in experiment [2] was inactive. In addition, the activity change, negative = inhibition in [3] is inactive: 1.43%. In addition, the Potency entry in [4] is “inactive”. Moreover, in experiment [5], the activity, negative = inhibition is inactive: -1.35%. Besides, the redox activity (% of DA3003) in experiment [6] is inactive: -3.1%.

In the case of `O=[N+]([O-])OCC(CO[N+](=O)[O-])(CO[N+](=O)[O-])CO[N+](=O)[O-]`, the activity, negative = inhibition in [1] is inactive: -10.7%. Also, the activity change, negative = inhibition in experiment [2] is inactive: -12.9%.

Regarding `C/C1=C2N=C(/C=C3N=C(/C(C)=C4\[N-][C@@](C)([C@@H]5N=C1[C@](C)(CCC(=O)NC[C@@H](C)OP(=O)([O-])O[C@H]1[C@@H](O)[C@@H](n6cnc7cc(C)c(C)cc76)O[C@@H]1CO)[C@H]5CC(N)=O)[C@@](C)(CC(N)=O)[C@@H]4CCC(N)=O)[C@@](C)(CC(N)=O)[C@@H]\3CCC(N)=O)C(C)(C)[C@@H]/2CCC(N)=O.[C-]#N.[Co+3]`, the activity change, negative = inhibition in experiment [7] is inactive: -4.29%; in [10] it was inactive: 9.45%; in [2], inactive: -5.71%. For the same compound, in experiment [8], the activity change, negative = cytotoxicity is inactive: -53.6%. Also, the activity change, negative = cytotoxic in experiment [9] is inactive: -0.621%. In addition, the activity, negative = inhibition in experiment [1] is inactive: -7.88%.

As to `CC1=C2[N-][C@@](C)([C@@H]3N=C(C(C)=C4N=C(C=C5N=C1[C@@](C)(CC(N)=O)[C@H]5CCC(N)=O)C(C)(C)[C@H]4CCC(N)=O)[C@](C)(CCC(=O)NC[C@@H](C)OP(=O)([O-])O[C@H]1[C@@H](O)[C@@H](n4cnc5cc(C)c(C)cc54)O[C@H]1CO)[C@H]3CC(N)=O)[C@@](C)(CC(N)=O)[C@@H]2CCC(N)=O.[C-]#N.[Co+3]`, the results for the viability in experiment [11], in experiment [12] and in experiment [14] were inactive: 83.1%, inactive: 95.9% and inactive: 95.7%, respectively. Moreover, the Potency in experiment [13] is active: 64.5 nM. In experiment [15], the viability (% of control) is inactive: 99.4%. The viability, % of DMSO in experiment [16] was inactive: 120%.
